Experiments:
NUGC-4 xenografts = assay: Biodistribution of Dyelight 680-labeled antibodies in NUGC-4 xenografted nude mice; settings: live imaging
PBMCs [1] = assay: Expansion of PBMC cultures with ZA/IL-2; assay type: cell-based, human; settings: 14 days, 1 μM ZA
Procedure: The effect of ZA/IL-2 on proliferation of PBMC cultures was assessed in vitro. PBMCs were harvested from healthy human donors and cultures were treated with a single dose of ZA. IL-2 was added every 3-4 days. Specifically, PBMC derived from 3 different healthy human donors (#1, #2, #3) were cultured in RPMI medium (1×10^6 cells/ml) for 14 days with 1 μM ZA plus high (300 U/ml) or low (25 U/ml) doses of IL-2; cf. FIG. 8a. PBMCs of the same donors were cultured additionally in RPMI medium for 14 days with 300 U/ml IL-2 plus ZA or without ZA; cf. FIG. 8b. Increase in cell numbers was determined by counting living cells on day 6, 8, 11 and 14.

[2] = test system: CLS-103~cldn18.2 allograft tumors; assay: Combination of IMAB362 and EOF on CLS-103~cldn18.2 allograft tumors; set-up: species or system NMRI mice; settings: mouse, in vivo
Procedure: CLS-103˜cldn18.2 allograft tumors were inoculated by injection of 1×10^6 CLS-103˜cldn18.2 cells subcutaneous into the flank of 10 NMRI mice for each treatment group. […] IL-2 was administered semi-weekly by subcutaneous injection of 3000 IE. […] Tumor size and animal health were monitored semi-weekly. Mice were sacrificed, when tumor reached a volume of 1400 mm^3 or tumors became ulcerous.

PBMCs [3] = assay: Composition of PBMC cultures (NK cells, Vγ9Vδ2 T cells) by multicolor FACS; assay type: cell-based, human; settings: 10 donors, 14 days, 300 U/ml IL-2 with or w/o 1 μM ZA
Procedure: Growth and differentiation of specific cell types in PBMC cultures depends on presence of cytokines. These components are either added to the medium (e.g. growth factors present in the serum, IL-2) or secreted by the immune cells themselves. Which type of cells evolves also depends on the initial composition of the PBMCs and on genetic endowments. To analyze the overall increase in effector cells (NK cells and Vγ9Vδ2 T cells) PBMCs of 10 different donors were grown in the presence of 300 U/ml IL-2 and with or w/o 1 μM ZA for 14 days. The amount of effector cells within the lymphocyte population was identified by multicolor FACS staining using CD3, CD16, CD56, Vγ9 and V62 antibodies. CD3-CD56+CD16+ cells represent NK cells and CD3+Vγ9+Vδ2+ represent Vγ9Vδ2 T cells.

Vγ9Vδ2 T cells = assay: IL-2 dose response on Vγ9Vδ2 T cells in ZA supplemented PBMC cultures; assay type: cell-based, human
Procedure: PBMCs were cultivated for 14 days in RPMI medium supplemented with 1 μM ZA and increasing IL-2 concentrations. IL-2 was added on day 0 and day 4. The enrichment of CD16+Vγ9+Vδ2+ T cells within the CD3+ lymphocyte population was determined by multicolor FACS staining on day 0 and day 14. To compare the different donors, the amount of CD16+Vγ9+Vδ2+ T cells harvested after cultivation with 600 U/ml IL-2 was set to 100%; cf. FIG. 10, left. Furthermore, ADCC activity of the isolated cultures grown for 14 days in increasing concentrations of IL-2 was tested; cf. FIG. 10, right.

Substance	retention of labeled antibody signal 120 hours after injection (NUGC-4 xenografts)	expanded cells, high dose (300 U/ml) versus low dose (25 U/ml) IL-2 (PBMCs [1])	tumor growth inhibition compared to saline control group [2]	cell type developing in PBMC cultures (PBMCs [3])	ADCC activity of cells grown in higher IL-2 concentrations compared to low (Vγ9Vδ2 T cells; 150-600 U/ml IL-2)	growth and survival of the Vγ9Vδ2 T cell subset (Vγ9Vδ2 T cells; dose response analysis, 1 μM ZA, 14 days)
Trastuzumab: antibody targeting HER2/neu, Dyelight 680-labeled positive control	rapidly washed out	–	–	–	–	–
IL-2: Interleukin-2, a type of cytokine signaling molecule in the immune system	–	2-5 fold	no effect	mainly NK cells develop	improved	stimulates growth and survival
